details: experimental values compiled from the literature

| Compound | logP |
| --- | --- |
| O=[N+]([O-])OCCCCCCCO[N+](=O)[O-] | 3.81 |
| O=[N+]([O-])c1cccc(O)c1[N+](=O)[O-] | 2.08 |
| O=[N+]([O-])OCCCO[N+](=O)[O-] | 1.68 |
| O=[N+]([O-])OCCCCO[N+](=O)[O-] | 2.17 |
| O=[N+]([O-])OC1CCCC(O[N+](=O)[O-])C1 (stereo not given) | 2.89 |
| CC(CC(C)O[N+](=O)[O-])O[N+](=O)[O-] (stereo not given) | 2.75 |
| O=[N+]([O-])OCCCCCCCCCCO[N+](=O)[O-] | 5.56 |
| CCN(C)CCO | 0.08 |
| O=[N+]([O-])OCCCCCCO[N+](=O)[O-] | 3.19 |
| O=[N+]([O-])OCCCCCO[N+](=O)[O-] | 2.64 |
| CC(CCCO[N+](=O)[O-])O[N+](=O)[O-] (stereo not given) | 2.88 |
| CCCN(C)CCO | 0.65 |
| O=[N+]([O-])OC1CCCCC1O[N+](=O)[O-] (stereo not given) | 2.62 |
| O=[N+]([O-])OC1CCCCCC1O[N+](=O)[O-] (stereo not given) | 3.41 |
| [N-]=[N+]=NC=Cc1ccc([N+](=O)[O-])o1 | 2.06 |
| CC(CCC(C)O[N+](=O)[O-])O[N+](=O)[O-] (stereo not given) | 3.09 |
| CC(CCO[N+](=O)[O-])O[N+](=O)[O-] (stereo not given) | 2.15 |
| CCC(CO[N+](=O)[O-])O[N+](=O)[O-] (stereo not given) | 2.36 |
| CC(CCCCO[N+](=O)[O-])O[N+](=O)[O-] (stereo not given) | 3.25 |
| CCCCC(CO[N+](=O)[O-])O[N+](=O)[O-] (stereo not given) | 3.51 |
